Assay [1] concerns the target T1, 5-hydroxytryptamine receptor 1A (Homo sapiens, UniProt P08908). The assay can be described thus: In vitro binding affinity at 5-hydroxytryptamine 1A receptor by [3H]8-OH-DPAT displacement.
Assay [2] addresses Sodium-dependent serotonin transporter (Rattus norvegicus, UniProt P31652). The assay is described as follows: In vitro affinity at the 5-HT reuptake site using [3H]paroxetine as radioligand in rat frontal cortex membranes. Type of assay: cell membranes, Membrane.
In assay [3] the target is T1, 5-hydroxytryptamine receptor 1A. The assay can be described thus: (§1) Inhibition of 5-HT induced [35S]GTP-gamma-S, binding at human cloned 5-HT 1A receptors. The class given is functional.
Assay [4] shares this target. The description is as §1. The class given is functional. This is another data set of the same source.

Protein sequences, listed by entry. Tags and fused reporters are not part of them.
UniProt P08908, whole entry: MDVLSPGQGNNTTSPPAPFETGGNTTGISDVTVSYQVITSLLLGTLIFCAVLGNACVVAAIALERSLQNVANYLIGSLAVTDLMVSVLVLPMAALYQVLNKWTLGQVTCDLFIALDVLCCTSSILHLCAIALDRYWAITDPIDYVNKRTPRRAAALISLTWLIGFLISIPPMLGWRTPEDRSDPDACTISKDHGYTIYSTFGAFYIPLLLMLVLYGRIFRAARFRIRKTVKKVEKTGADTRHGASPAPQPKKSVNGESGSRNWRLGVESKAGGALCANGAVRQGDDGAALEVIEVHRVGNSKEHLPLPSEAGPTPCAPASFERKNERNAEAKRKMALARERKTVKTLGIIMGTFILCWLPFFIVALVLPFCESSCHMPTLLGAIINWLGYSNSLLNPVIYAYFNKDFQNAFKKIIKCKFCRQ
UniProt P31652, whole entry: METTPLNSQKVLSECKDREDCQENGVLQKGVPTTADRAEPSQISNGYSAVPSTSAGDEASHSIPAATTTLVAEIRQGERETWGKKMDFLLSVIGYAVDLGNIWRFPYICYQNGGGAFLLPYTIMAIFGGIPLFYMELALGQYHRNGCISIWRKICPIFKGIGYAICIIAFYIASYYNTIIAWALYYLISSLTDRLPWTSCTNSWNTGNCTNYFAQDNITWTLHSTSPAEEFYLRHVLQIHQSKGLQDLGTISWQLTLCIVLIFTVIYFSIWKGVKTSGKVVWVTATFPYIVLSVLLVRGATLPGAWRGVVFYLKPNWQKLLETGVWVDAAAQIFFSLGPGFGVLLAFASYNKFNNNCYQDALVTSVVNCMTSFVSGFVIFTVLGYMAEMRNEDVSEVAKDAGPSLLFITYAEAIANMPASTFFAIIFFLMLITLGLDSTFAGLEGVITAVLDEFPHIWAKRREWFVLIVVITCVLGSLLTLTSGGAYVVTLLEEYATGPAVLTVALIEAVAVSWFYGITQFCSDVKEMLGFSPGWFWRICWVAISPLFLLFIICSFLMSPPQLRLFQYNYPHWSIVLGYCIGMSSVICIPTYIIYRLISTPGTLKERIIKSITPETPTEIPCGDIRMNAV

As a reminder, the pKi is −log10 of the Ki, conventionally taken in molar units. The low end stands for a high Ki, the high end for a low Ki.

The structures appear in SMILES notation. pKi: −log10 of the molar value.

As for `COc1cccc2sc([C@H]3CCN(C[C@H](O)COc4cccc5[nH]ccc45)[C@@H](C)C3)cc12`, the negative-log Ki (pKi) in assay [1] is 7.84; in assay [2], 7.87; in assay [3], 7.78.

Take `COc1cccc2sc([C@@H]3CCN(C[C@H](O)COc4cccc5[nH]ccc45)[C@H](C)C3)cc12`: the figures for the pKi in assay [1] and in assay [3] were 8.56 and 8.74, respectively.

`COc1cccc2sc([C@H]3CCN(C[C@H](O)COc4cccc5[nH]ccc45)[C@H](C)C3)cc12`: the results for the pKi in assay [1], in assay [2] and in assay [3] were 8.07, 8.94 and 8.08, respectively.

Regarding `C[C@H]1C[C@H](c2cc3c(F)cccc3s2)CCN1C[C@H](O)COc1cccc2[nH]ccc12`, the pKi in assay [1] was 7.86.

`COc1cccc2sc([C@@H]3CCN(C[C@H](O)COc4cccc5[nH]ccc45)[C@@H](C)C3)cc12` showed an Emin in assay [4] of 7.83%. The negative logarithm of the Ki (pKi) is 8.44 in assay [1], 9.57 in assay [2] and 8.63 in assay [3].
